Data: patent publication US20250326741A1, “GLUCOSE-DEPENDENT INSULINOTROPIC POLYPEPTIDE RECEPTOR ANTAGONISTS AND USES THEREOF” (Pfizer Inc., priority 2024, published 2025)

Molecular target: T1, human Glucose-dependent Insulinotropic Polypeptide Receptor (hGIPR) (Homo sapiens, UniProt P48546)
T1 sequence (P48546 22-466): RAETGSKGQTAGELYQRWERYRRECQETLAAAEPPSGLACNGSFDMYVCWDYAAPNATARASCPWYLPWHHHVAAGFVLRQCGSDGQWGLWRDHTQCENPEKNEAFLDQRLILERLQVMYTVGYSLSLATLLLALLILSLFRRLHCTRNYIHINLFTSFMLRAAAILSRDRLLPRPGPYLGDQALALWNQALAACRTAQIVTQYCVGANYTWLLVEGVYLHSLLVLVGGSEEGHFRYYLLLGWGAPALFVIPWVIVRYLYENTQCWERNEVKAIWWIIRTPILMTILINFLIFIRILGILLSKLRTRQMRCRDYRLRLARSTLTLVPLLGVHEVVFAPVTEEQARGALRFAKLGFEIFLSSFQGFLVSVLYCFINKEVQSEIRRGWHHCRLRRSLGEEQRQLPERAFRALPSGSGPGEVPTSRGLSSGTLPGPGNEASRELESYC
Experiment: Functional in vitro GIPR antagonist potency assay (intracellular cAMP, HTRF, hGIP stimulation at EC80)
Type: cell-based
Settings: geometric mean; CHO-K1 cells stably expressing human GIPR, cAMP after hGIP stimulation at EC80
Description: Example AA. Functional In Vitro GIPR Antagonist Potency Assay
The functional in vitro antagonist potency for test compounds was determined by monitoring intracellular cyclic adenosine monophosphate (cAMP) levels in Chinese hamster ovary (CHO)—K1 cells stably expressing the human Glucose-dependent Insulinotropic Polypeptide Receptor (hGIPR). Following agonist activation, hGIPR associates with the G-protein complex causing the Gas subunit to exchange bound guanosine diphosphate (GDP) for guanosine triphosphate (GTP), followed by dissociation of the Gas-GTP complex. The activated Gas subunit can couple to downstream effectors to regulate the levels of second messengers or cAMP within the cell. Thereby, determination of intracellular cAMP levels allows for pharmacological characterization. Intracellular cAMP levels are quantitated using a homogenous assay utilizing the Homogeneous Time Resolved Fluorescence (HTRF) technology from Perkin Elmer. The method is a competitive immunoassay between native cAMP produced by the cells and cAMP labelled with the acceptor dye, d2. The two entities compete for binding to a monoclonal anti-cAMP antibody labeled with cryptate. The specific signal is inversely proportional to the concentration of cAMP in the cells.
Test compounds were solubilized to a concentration of 30 mM in 100% dimethyl sulfoxide (DMSO). An 11-point dilution series using 1 in 3.162-fold serial dilutions was created in 100% DMSO with a top concentration of 8 mM. The serially diluted compound was spotted with an Echo Acoustic liquid handler (Beckman Coulter) into a 384-well assay plate (Corning, Cat No. 3824) at 50 nL/well with duplicate points at each concentration, at a 200× final assay concentration (FAC). The final compound concentration range in the assay was 40 μM to […], with a final DMSO concentration of 0.5%.
Frozen assay-ready vials (at 1×10^7 cells/vial) of CHO-K1 cells stably expressing the Gs-coupled human GIPR receptor (Eurofins, DiscoverX, Cat No. 95-0146C2) were thawed, counted, and resuspended in assay buffer consisting of Hank's Balanced Salt Solution (HBSS, Lonza Cat No. 10-527) containing 20 mM (4-(2-hydroxyethyl)-1-piperazineethanesulfonic acid (HEPES, Lonza, Cat No. 17-737E), 0.1% bovine serum albumin (BSA, Sigma, Cat No. A7979), and 200 μM 3-isobutyl-1-methylxanthine (IBMX, Sigma, Cat No. 15879) at a density of 4×10^5 cells/mL. Cells were added to assay plate (5 μL/well of 4×10^5 cells/mL stock for 2,000 cells/well final) containing 50 nL of 200×FAC test compound, and incubated at 37° C. (95% O2: 5% CO2) for 2 hours, with micro-clime lids (Labcyte, Cat No. LLS-0310). Following the 2-hour cell and compound incubation, a stimulation mix comprised of hGIPR agonist human glucose-dependent insulinotropic polypeptide (hGIP, full length, Sigma Cat No. G2269) in assay buffer/0.1% DMSO was added to the assay plate (5 μL/well) at an estimated EC80 FAC (based on previous hGIP agonist curves) and incubated for another 30 minutes with micro-clime lids at 37° C. (95% O2: 5% CO2), after which intracellular cAMP levels were quantified as per Perkin Elmer's protocol (5 μL of d2 and then 5 μL cryptate, incubated for 1 hour at room temperature). Emission spectra of samples were measured on a Pherastar plate reader (BMG Labtech Inc) using a HTRF protocol (excitation, 320 nm; emission, 665 nm/620 nm).
hGIP EC50 was determined daily by incubating cells (5 μL/well of 4×10^5 cells/mL stock, for 2,000 cells/well final) with 50 nL 100% DMSO for 2 hours at 37° C. (95% O2: 5% CO2), with a micro-clime lid. Following the 2-hour cell and DMSO incubation, a hGIP concentration response curve at 2×FAC (12-point curve using 1 in 3 serial dilutions, with triplicate points at each concentration, 100 nM final top concentration) in assay buffer/1% DMSO was added (5 μL/well) and incubated for a further 30 minutes with a micro-clime lid at 37° C. […]

`CC(C)c1ccc(NC(=O)N2CCC[C@@H]2C(=O)Nc2ccn(-c3ccc(C(=O)O)cc3)n2)cc1F` [Example 1, 4-{3-[(1-{[3-Fluoro-4-(propan-2-yl)phenyl]carbamoyl}-D-prolyl)amino]-1H-pyrazol-1-yl}benzoic Acid] and `Cc1cc(-n2ccc(NC(=O)[C@H]3CCCN3C(=O)Nc3ccc(C(C)C)c(F)c3)n2)ccc1C(=O)O` [Example 5, 4-{3-[(1-{[3-Fluoro-4-(propan-2-yl)phenyl]carbamoyl}-D-prolyl)amino]-1H-pyrazol-1-yl}-2-methylbenzoic Acid] are within 1.5-fold of each other in IC50: 6.9 nM for the first, 8.4 nM for the second.

Compared with `Cc1cc(-n2ccc(NC(=O)[C@H]3CCCN3C(=O)Nc3ccc(C(F)(F)F)cc3)n2)ccc1C(=O)O` [Example 4, 2-Methyl-4-{3-[(1-{[4-(trifluoromethyl)phenyl]carbamoyl}-D-prolyl)amino]-1H-pyrazol-1-yl}benzoic Acid], `Cc1c(C(=O)O)ccc(-n2ccc(NC(=O)[C@H]3CCCN3C(=O)Nc3ccc(C(C)C)cc3)n2)c1F` [Example 10, 3-Fluoro-2-methyl-4-{3-[(1-{[4-(propan-2-yl)phenyl]carbamoyl}-D-prolyl)amino]-1H-pyrazol-1-yl}benzoic Acid] is 2.4-fold lower in IC50: 18 nM for the first, 7.4 nM for the second.

`Cc1cc(NC(=O)N2CCC[C@@H]2C(=O)Nc2ccn(-c3ccc(C(=O)O)cc3F)n2)ccc1C(C)C` [Example 7, 3-Fluoro-4-{3-[(1-{[3-methyl-4-(propan-2-yl)phenyl]carbamoyl}-D-prolyl)amino]-1H-pyrazol-1-yl}benzoic Acid] and `Cc1cc(-n2ccc(NC(=O)[C@H]3CCCN3C(=O)Nc3ccc(C(C)C)c(C)c3)n2)c(F)cc1C(=O)O` [Example 12, 5-Fluoro-2-methyl-4-{3-[(1-{[3-methyl-4-(propan-2-yl)phenyl]carbamoyl}-D-prolyl)amino]-1H-pyrazol-1-yl}benzoic Acid] are within 1.5-fold of each other in IC50: 10 nM for the first, 8.7 nM for the second.

`Cc1cc(NC(=O)N2CCC[C@@H]2C(=O)Nc2ccn(-c3ccc(C(=O)O)c(C)c3F)n2)ccc1C(C)C` [Example 13, 3-Fluoro-2-methyl-4-{3-[(1-{[3-methyl-4-(propan-2-yl)phenyl]carbamoyl}-D-prolyl)amino]-1H-pyrazol-1-yl}benzoic Acid] showed an IC50 of 12 nM.
